Earlier results, collected in patent US20040006070A1, “Intraspinal continuous infusion of midazolam hydrochloride for the treatment of pain” (priority 2002, published 2004).

Conditions: cited from earlier work

For `CN1CC[C@]23c4c5ccc(O)c4O[C@H]2C(=O)CC[C@H]3[C@H]1C5` [Hydromorphone], the “potency of intrathecal infusion relative to intrathecal morphine sulfate” value (intrathecal infusion) is listed as “approximately 6 times”, the “potency of intrathecal infusion relative to intravenous infusion” value (intrathecal vs intravenous infusion) is listed as “approximately 20 times” and the “approximate equipotent dose, IT” value (route IT) is listed as 1.7. The “approximate equipotent dose, IV” value (route IV) was 33 and the “approximate equipotent dose, PO” value (route PO) was 100.
